Results from patent US6319894A, “Complexes and combinations of fetuin with therapeutic agents” (The Picower Institute for Medical Research, priority 1997, dated 2001).

Test system: LPS-stimulated RAW 264.7 cells (inducible nitric oxide synthase, iNOS)
Experiment: NO / nitrite production (Griess reaction, iNOS activity) in LPS-stimulated RAW 264.7 cells
Type: cell-based, murine
Conditions: glycoprotein 2.5 μg/ml; CNI-1493 2.0 μM; FIG. 13
Description: Typically, cultures were maintained in 150-mm plates with 30 mls culture medium until they reached 80-90% confluence, and were then subjected to different experimental protocols. […] The incubation was continued for another 24 hours before subjecting the cultures to further experiments.
LPS (endotoxin) was sonicated for 10 minutes and added to culture media to achieve the desired final concentration, typically 100 ng/ml.
Inducible nitric oxide synthase activity (iNOS) was assayed indirectly by measuring NO^2- production. NO^2- was measured by a colorimetric assay based on the Griess reaction. […] The optical density was read at 560 nm after 10 min, and NO^2- concentration was determined with reference to a standard curve by using concentrations of 1.5 to 50 μM sodium nitrite in culture medium.

albumin: listed among other glycoproteins, net negatively charged at physiological pH
augmentation of CNI-1493 activity (nitrite production): only fetuin was effective in augmenting CNI-1493 therapeutic activity
